# Test system: L1210 cell line
# Assay: In vitro cytotoxic activity, L1210
# Format: cell-based
Substance,"cytotoxic potency, fold less potent than 4","cytotoxic potency, fold more effective than 10"
(N-(Iso-quinolinyl-3-carbonyl)-D-Ser-Pip-Gly-Sar-NMe-Val)2 (Serine Hydroxyl) Dilactone [compound 21],100,4000
(N-(Isoquinolinyl-1-carbonyl)-D-Ser-Pip-Gly-Sar-NMe-Val)2 (Serine Hydroxyl) Dilactone [compound 22],100,4000

# — patent publication US6329497A, “Sandramycin analogs” (The Scripps Research Institute, priority 1999, dated 2001)
